The record followed here is ChEMBL document CHEMBL1121753 (J Med Chem, 1981).

In this series the test system is ADJ/PC6. As to the kind of experiment: Compound was tested for dose required to kill 50 % of ADJ/PC6 mouse plasma cell tumor in a group.
For the compound `[O-][P@+]1(N(CCCl)CCCl)NC[C@H](Cl)CO1`, the median lethal dose (LD50) worked out at 540 mg/kg. Compound `[O-][P@+]1(N(CCCl)CCCl)NC[C@@H](Cl)CO1` had an LD50 of 380 mg/kg. `[O-][P@+]1(N(CCCl)CCCl)NC[C@H](F)CO1` gave an LD50 of 320 mg/kg.

`[O-][P@+]1(N(CCCl)CCCl)NC[C@@H](F)CO1` displayed a median lethal dose (LD50) of 320 mg/kg.

Broadly, the LD50 is the dose at which mortality reaches 50%. Lower therefore signals a more toxic substance.
